# Experimental data from US20240360179A1, “STAPLED PEPTIDES AND METHODS THEREOF” (FOG PHARMACEUTICALS, INC., priority 2021, published 2024).
# Chains of the proteins cited; added tags and fusions are not shown.
# UniProt P35222, whole entry: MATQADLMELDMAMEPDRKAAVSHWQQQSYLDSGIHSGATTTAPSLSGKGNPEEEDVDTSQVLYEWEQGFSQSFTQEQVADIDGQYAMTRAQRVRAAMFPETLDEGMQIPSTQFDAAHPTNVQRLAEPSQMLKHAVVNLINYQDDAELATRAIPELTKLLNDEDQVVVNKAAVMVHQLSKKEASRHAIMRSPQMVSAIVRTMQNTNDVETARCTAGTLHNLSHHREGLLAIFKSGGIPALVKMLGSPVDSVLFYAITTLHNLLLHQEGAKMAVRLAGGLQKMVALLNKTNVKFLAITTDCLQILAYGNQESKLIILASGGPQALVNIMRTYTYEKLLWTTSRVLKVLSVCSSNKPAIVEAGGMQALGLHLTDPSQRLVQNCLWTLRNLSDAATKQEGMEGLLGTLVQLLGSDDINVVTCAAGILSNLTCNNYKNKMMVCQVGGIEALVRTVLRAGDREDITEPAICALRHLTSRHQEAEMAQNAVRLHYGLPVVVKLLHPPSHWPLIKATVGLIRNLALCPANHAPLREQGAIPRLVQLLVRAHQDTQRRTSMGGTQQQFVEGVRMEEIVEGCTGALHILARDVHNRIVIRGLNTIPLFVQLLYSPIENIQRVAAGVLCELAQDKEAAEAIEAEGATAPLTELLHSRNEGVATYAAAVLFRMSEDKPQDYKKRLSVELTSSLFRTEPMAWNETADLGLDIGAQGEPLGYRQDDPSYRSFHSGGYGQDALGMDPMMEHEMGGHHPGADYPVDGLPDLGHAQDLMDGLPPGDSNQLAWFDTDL
# Molecular target: T1, full-length B-Catenin (Uniprot ID P35222) (Homo sapiens, UniProt P35222)
# T1 construct: 10 nM full-length B-Catenin (Uniprot ID P35222)
# Type: binding
# Conditions: competition fluorescence polarization; read-out: beta-Catenin FP IC50
row,Substance,IC50 [nM]
1,Ac-PL3-Asp-Npg-B5-Asp-TfeGA-Phe-Ala-Phe-Lys*3-PyrS2-Phe-BztA-GlnR*3-Leu-Ser-NH2 [I-902],50 to 200
2,Ac-PL3-Asp-Npg-B5-Asp-[Ac]Dap-Aib-Ala-Phe-Lys*3-PyrS2-3Thi-BztA-GlnR*3-Ala-NH2 [I-1396],< 50
3,Ac-PL3-Asp-Npg-B5-Asp-[CH2CO2H]Acp-Aib-Ala-Phe-Lys*3-PyrS2-3Thi-BztA-GlnR*3-Ala-NH2 [I-1397],200 to 750
4,Ac-PL3-Asp-Npg-B5-Asp-[Malonate]Dap-Aib-Ala-Phe-Lys*3-PyrS2-3Thi-BztA-GlnR*3-Ala-NH2 [I-1432],< 50
5,Ac-PL3-Asp-Npg-B5-Asp-[Me2Mal]Dap-Aib-Ala-Phe-Lys*3-PyrS2-3Thi-BztA-GlnR*3-Ala-NH2 [I-1433],< 50
6,Ac-PL3-Asp-Npg-B5-Asp-[Pfbn]GA-Aib-Ala-Phe-Lys*3-PyrS2-3Thi-BztA-GlnR*3-Ala-NH2 [I-1398],< 50
7,Ac-PL3-Asp-Npg-B5-Asp-[RaiPrSuc]Dap-Aib-Ala-Phe-Lys*3-PyrS2-3Thi-BztA-GlnR*3-Ala-NH2 [I-1436],< 50
8,Ac-PL3-Asp-Npg-B5-Asp-[SaMeSuc]Dap-Aib-Ala-Phe-Lys*3-PyrS2-3Thi-BztA-GlnR*3-Ala-NH2 [I-1435],< 50
9,Ac-PL3-Asp-Npg-B5-Asp-[SaiPrSuc]Dap-Aib-Ala-Phe-Lys*3-PyrS2-3Thi-BztA-GlnR*3-Ala-NH2 [I-1434],< 50
10,Ac-PL3-Asp-Npg-B5-Asp-[Succinate]Dap-Aib-Ala-Phe-Lys*3-PyrS2-3Thi-BztA-GlnR*3-Ala-NH2 [I-1431],< 50
11,Ac-PL3-Asp-Npg-B5-Asp-[Tfb]GA-Aib-Ala-Phe-Lys*3-PyrS2-3Thi-BztA-GlnR*3-Ala-NH2 [I-1399],< 50
12,Ac-PL3-Asp-Npg-B5-Asp-bMe2Asp-Aib-Ala-Phe-Lys*3-PyrS2-Phe-34ClF-GlnR*3-NH2 [I-1061],< 50
13,Ac-PL3-Asp-Npg-B5-AspSH-3COOHF-Aib-Ala-Phe-Lys*3-PyrS2-3Thi-BztA-GlnR*3-Ala-NH2 [I-1302],200 to 750
14,Ac-PL3-Asp-Npg-B5-Hse-TfeGA-Ala-Ala-Phe-Lys*3-PyrS2-2F3MeF-BztA-GlnR*3-Ala-NH2 [I-119],> 1000
15,Ac-PL3-Asp-R5-S5-Asp-3COOHF-Aib-Ala-Phe-PyrS2-Lys*3-3Thi-BztA-Ala-GlnR*3-NH2 [I-1484],> 1000
16,Ac-PL3-Asp-nLeu-B5-Asp-3COOHF-CyhLeu-Ala-Phe-Lys*3-PyrS2-3Thi-BztA-GlnR*3-Ala-NH2 [I-855],< 50
17,Ac-PL3-AspSH-Npg-B5-Asp-3COOHF-Aib-Ala-Phe-Lys*3-PyrS2-3Thi-BztA-GlnR*3-Ala-NH2 [I-1301],50 to 200
18,Ac-PL3-AspSH-Npg-B5-AspSH-3COOHF-Aib-Ala-Phe-Lys*3-PyrS2-3Thi-BztA-GlnR*3-Ala-NH2 [I-1303],> 1000
19,Ac-PL3-BztA-Npg-B5-Asp-3COOHF-Aib-Ala-Phe-Lys*3-PyrS2-3Thi-BztA-GlnR*3-Ala-NH2 [I-1154],> 1000
20,Ac-PL3-Gln-Npg-B5-Asp-3COOHF-Aib-Ala-Phe-Lys*3-PyrS2-3Thi-BztA-GlnR*3-Ala-NH2 [I-929],200 to 750
21,Ac-PL3-Gln-Npg-B5-Asp-3COOHF-Aib-Ala-Phe-Lys*3-PyrS2-3Thi-BztA-GlnR*3-Ala-NH2 [I-930],200 to 750
22,Ac-PL3-Gln-Npg-B5-Asp-3COOHF-Aib-Ala-Phe-Lys*3-PyrS2-3Thi-BztA-GlnR*3-Ala-NH2 [I-968],> 1000

row,Substance,IC50 [nM]
1,Ac-PL3-Glu-Npg-B5-Asp-3COOHF-Aib-Ala-Phe-Lys*3-PyrS2-3Thi-BztA-GlnR*3-Ala-NH2 [I-967],50 to 200
2,Ac-PL3-Glu-Npg-B5-Glu-3COOHF-Aib-Ala-Phe-Lys*3-PyrS2-3Thi-34ClF-GlnR*3-NH2 [I-1024],> 1000
3,Ac-PL3-Hse-Npg-B5-Asp-TfeGA-Ala-Ala-Phe-Lys*3-PyrS2-2F3MeF-BztA-GlnR*3-Ala-NH2 [I-116],> 1000
4,Ac-PL3-NAsp-Npg-B5-Asp-3COOHF-Aib-Ala-Phe-Lys*3-PyrS2-3Thi-BztA-GlnR*3-Ala-NH2 [I-819],50 to 200
5,Ac-PL3-Npg-Npg-B5-Asp-3COOHF-Aib-Ala-Phe-Lys*3-PyrS2-3Thi-BztA-GlnR*3-Ala-NH2 [I-1153],> 1000
6,Ac-PL3-Phe-Npg-B5-Asp-3COOHF-Aib-Ala-Phe-Lys*3-PyrS2-3Thi-BztA-GlnR*3-Ala-NH2 [I-928],> 1000
7,Ac-PL3-RbGlu-Npg-B5-Asp-3COOHF-Aib-Ala-Phe-Lys*3-PyrS2-3Thi-BztA-GlnR*3-Ala-NH2 [I-965],200 to 750
8,Ac-PL3-SbGlu-Npg-B5-Asp-3COOHF-Aib-Ala-Phe-Lys*3-PyrS2-3Thi-BztA-GlnR*3-Ala-NH2 [I-962],> 1000
9,Ac-PL3-Ser-DipA-B5-Asp-3COOHF-nLeu-Ala-Phe-Lys*3-PyrS2-3Thi-BztA-GlnR*3-NH2 [I-1681],< 50
10,Ac-PL3-Thr-DipA-B5-Asp-3COOHF-nLeu-Ala-Phe-Lys*3-PyrS2-3Thi-BztA-GlnR*3-NH2 [I-1682],200 to 750
11,Ac-PL3-aThr-DipA-B5-Asp-3COOHF-CyLeu-Ala-Phe-Lys*3-PyrS2-3Thi-34ClF-GlnR*3-NH2 [I-1631],50 to 200
12,Ac-PL3-aThr-DipA-B5-Asp-3COOHF-nLeu-Ala-3Thi-Lys*3-PyrS2-3Thi-BztA-GlnR*3-NH2 [I-1687],200 to 750
13,Ac-PL3-aThr-DipA-B5-Asp-3COOHF-nLeu-Ala-Phe-Lys*3-PyrS2-3Thi-34ClF-GlnR*3-NH2 [I-1637],50 to 200
14,Ac-PL3-isoDAsp-Npg-B5-Asp-3COOHF-Aib-Ala-Phe-Lys*3-PyrS2-3Thi-BztA-GlnR*3-Ala-NH2 [I-963],50 to 200
15,Ac-PL3-isoDGlu-Npg-B5-Asp-3COOHF-Aib-Ala-Phe-Lys*3-PyrS2-3Thi-BztA-GlnR*3-Ala-NH2 [I-960],> 1000
16,Ac-PL3-isoGlu-Npg-B5-Asp-3COOHF-Aib-Ala-Phe-Lys*3-PyrS2-3Thi-BztA-GlnR*3-Ala-NH2 [I-958],> 1000
17,Ac-Pro-Ala-S5-Ala-Asp-Npg-B5-Asp-3COOHF-Aib-Ala-Phe-Lys*3-PyrS2-3Thi-BztA-GlnR*3-Ala [I-1286],50 to 200
18,Ac-Pro-Ala-S5-Ser-Asp-Npg-B5-Asp-3COOHF-Aib-Ala-Phe-Lys*3-PyrS2-3Thi-BztA-GlnR*3-Ala [I-1289],50 to 200
19,Ac-Pro-S5-Ala-Asp-DipA-B5-Asp-3COOHF-Aib-Ala-Phe-Lys*3-PyrS1-Phe-34ClF-GlnR*3-NH2 [I-1888],< 50
20,Ac-Pro-S5-Ala-Asp-Leu-B5-Asp-3COOHF-Aib-Ala-Phe-Lys*3-PyrS1-Phe-34ClF-GlnR*3-NH2 [I-1883],< 50
21,Ac-Pro-S5-Ala-Asp-Val-B5-Asp-3COOHF-Aib-Ala-Phe-Lys*3-PyrS1-Phe-34ClF-GlnR*3-NH2 [I-1889],< 50
22,Ac-Pro-S5-Glu-Asp-DipA-B5-Asp-3COOHF-Aib-Ala-Phe-Lys*3-PyrS1-Phe-34ClF-GlnR*3-NH2 [I-1885],< 50

row,Substance,IC50 [nM]
1,Ac-Pro-S5-Glu-Asp-Leu-B5-Asp-3COOHF-Aib-Ala-Phe-Lys*3-PyrS1-Phe-34ClF-GlnR*3-NH2 [I-1887],< 50
2,Ac-Pro-S5-Glu-Asp-Val-B5-Asp-3COOHF-Aib-Ala-Phe-Lys*3-PyrS1-Phe-34ClF-GlnR*3-NH2 [I-1886],< 50
3,Ac-Pro-S5-Leu-Asp-DipA-B5-Asp-3COOHF-Aib-Ala-Phe-Lys*3-PyrS1-Phe-34ClF-GlnR*3-NH2 [I-1893],< 50
4,Ac-Pro-S5-Leu-Asp-Leu-B5-Asp-3COOHF-Aib-Ala-Phe-Lys*3-PyrS1-Phe-34ClF-GlnR*3-NH2 [I-1895],< 50
5,Ac-Pro-S5-Leu-Asp-Val-B5-Asp-3COOHF-Aib-Ala-Phe-Lys*3-PyrS1-Phe-34ClF-GlnR*3-NH2 [I-1894],< 50
6,Ac-Pro-S5-Val-Asp-Leu-B5-Asp-3COOHF-Aib-Ala-Phe-Lys*3-PyrS1-Phe-34ClF-GlnR*3-NH2 [I-1892],< 50
7,Ac-Pro-S5-Val-Asp-Val-B5-Asp-3COOHF-Aib-Ala-Phe-Lys*3-PyrS1-Phe-34ClF-GlnR*3-NH2 [I-1891],< 50
8,Ac-Pro-S6-Leu-Asp-Chg-B5-Asp-3COOHF-Aib-Ala-Phe-Lys*3-PyrS1-3Thi-BztA-GlnR*3-NH2 [I-1941],< 50
9,Ac-Pro-S6-Leu-Asp-Val-B5-Asp-3COOHF-Aib-Ala-Phe-Lys*3-PyrS1-3Thi-BztA-GlnR*3-NH2 [I-1940],< 50
10,Ac-Pro-Ser-S5-Ala-Asp-Npg-B5-Asp-3COOHF-Aib-Ala-Phe-Lys*3-PyrS2-3Thi-BztA-GlnR*3-Ala [I-1295],50 to 200
11,Ac-S5-3COOHF-Asp-DipA-B5-Asp-3COOHF-Aib-Ala-Phe-Lys*3-PyrS1-3Thi-BztA-GlnR*3-NH2 [I-1875],< 50
12,Ac-S5-Ala-Asn-Npg-B5-Asp-3COOHF-Aib-Ala-Phe-Lys*3-PyrS2-3Thi-BztA-GlnR*3-Ala-NH2 [I-1193],200 to 750
13,Ac-S5-Ala-Asn-Npg-B5-Asp-3COOHF-Aib-Ala-Phe-Lys*3-PyrS2-3Thi-BztA-GlnR*3-Ala-NH2 [I-1194],50 to 200
14,Ac-S5-Ala-Asn-Npg-B5-Asp-3COOHF-Aib-Ala-Phe-Lys*3-PyrS2-3Thi-BztA-GlnR*3-Ala-NH2 [I-1218],50 to 200
15,Ac-S5-Ala-Asp-Ala-B5-Asp-3COOHF-Aib-Ala-Phe-Lys*3-PyrS2-Phe-34ClF-GlnR*3-Ala-NH2 [I-1235],< 50
16,Ac-S5-Ala-Asp-Ala-B5-Asp-3COOHF-Aib-Ala-Phe-Lys*3-PyrS2-Phe-34ClF-GlnR*3-NH2 [I-1236],< 50
17,Ac-S5-Ala-Asp-Cha-B5-Asp-3COOHF-Aib-Ala-Phe-Lys*3-PyrS1-Phe-34ClF-GlnR*3-NH2 [I-1626],< 50
18,Ac-S5-Ala-Asp-Cha-B5-Asp-3COOHF-Aib-Ala-Phe-Lys*3-PyrS2-Phe-34ClF-GlnR*3-NH2 [I-1616],< 50
19,Ac-S5-Ala-Asp-Chg-B5-Asp-3COOHF-Aib-Ala-Phe-Lys*3-PyrS1-Phe-34ClF-GlnR*3-NH2 [I-1627],< 50
20,Ac-S5-Ala-Asp-Chg-B5-Asp-3COOHF-Aib-Ala-Phe-Lys*3-PyrS2-Phe-34ClF-GlnR*3-NH2 [I-1620],< 50
21,Ac-S5-Ala-Asp-DipA-B5-Asp-3COOHF-Aib-Ala-Phe-Lys*3-PyrS1-3Thi-BztA-GlnR*3-NH2 [I-1876],< 50
